## CN1CC[C@]23c4c5ccc(O)c4O[C@H]2C(=O)CC[C@H]3[C@H]1C5 [Hydromorphone, hydromorphone]
FIG. 1, drug present in liposomes as the sulfate salt
  in vitro leakage, liposomes loaded using 240 mM ammonium sulfate versus passive aqueous capture of hydromorphone hydrochloride: less
FIG. 2, different concentrations of ammonium sulfate
  in vitro leakage on increasing the concentration of ammonium sulfate inside the liposomes: not diminished
Acid loaded liposomes, unbuffered saline, 22° C.
  time within which nearly all of the release occurred: ≤ 24 h

Reference: patent US20170258722A1, “ENCAPSULATING LIPOSOMES” (priority 2012, published 2017)
